Curated experimental data: vapor pressure values

Values as listed in the OPERA 2.9 repository of K. Mansouri.

Vapor pressures (log10 mmHg) refer to near room temperature, 15 to 30 °C; higher is more volatile. "via" names the databases from which the curators took the value.

log VP (log10 mmHg),SMILES,via
-7.084,CCCCCC(CCC)COC(=O)CCCCC(=O)OCC(CCC)CCCCC (stereo not drawn),eChemPortal
-1.824,Cc1c(Cl)cccc1[N+](=O)[O-],eChemPortal
-4.289,Cc1ccc(C(=O)O)c(O)c1,eChemPortal
-4.745,CC(=O)O.CCCCCCCCCCCCCCCC(=O)O.CCCCCCCCCCCCCCCCCC(=O)O.OCC1OC(OC2(CO)OC(CO)C(O)C2O)C(O)C(O)C1O (stereo not drawn),eChemPortal
2.691,CCN(C)C,eChemPortal
-6.152,O=C1NC(c2ccc(-c3ccccc3)cc2)=C2C(=O)NC(c3ccc(Cl)cc3)=C12,eChemPortal
-6.206,CCCCCCCC/C=C\CCCCCCCC(=O)NCCCCCCCC/C=C/CCCCCCCC,eChemPortal
-2.914,CC=CCCC1CCCC(=O)O1 (stereo not drawn),eChemPortal
-4.854,Clc1cc(-c2c(Cl)cccc2Cl)cc(Cl)c1Cl,OCHEM
-3.562,CCC(C)Nc1ccc(NC(C)CC)cc1 (stereo not drawn),eChemPortal
-2.259,NCCCCCCCCN,eChemPortal
0.839,CCO[SiH](OCC)OCC,eChemPortal
-0.878,NCCS,eChemPortal
-4.663,CCCC[n+]1ccccc1.[Al+3].[Al+3].[Cl-].[Cl-].[Cl-].[Cl-].[Cl-].[Cl-].[Cl-],eChemPortal
-5.71,CCCCCCCCOP(=O)(OCCCCCCCC)c1ccccc1,OCHEM
0.815,C[Si](C)(Cl)CCCC#N,eChemPortal
-8.718,C=C(Cl)C(=O)[O-].[Na+],eChemPortal
-3.684,Brc1cccc(Br)c1Oc1ccccc1,OCHEM
-5.402,CCCOC(=O)c1ccc(O)cc1,eChemPortal
-5.736,CCCCCCCCCCCC[N+](C)(C)C.[Br-],eChemPortal
-4.484,Cc1ccc(S(=O)[O-])cc1.Cc1ccc(S(=O)[O-])cc1.[Zn+2],eChemPortal
-6.397,O=S(=O)([O-])CCN(O)CCS(=O)(=O)[O-].[Na+].[Na+],eChemPortal
-9.796,CC(=O)OCCOc1ccc(C(C)(C)c2ccc(OCCOC(C)=O)cc2)cc1,eChemPortal
-4.325,Clc1cc(Cl)c(-c2c(Cl)cccc2Cl)c(Cl)c1Cl,OCHEM
-0.607,C1CC[Si]2(C1)O[Si]1(CCCC1)O[Si]1(CCCC1)O[Si]1(CCCC1)O2,OCHEM
2.218,CC(C)=CCl,PubChem
-2.116,C=CCOCC(O)COCCCC (stereo not drawn),eChemPortal
-10.69,Cn1cc(C(=O)Nc2ccccc2-c2cc(F)c(F)c(F)c2)c(C(F)F)n1,OCHEM
1.06,CO[Si](C)(OC)OC,eChemPortal
-0.155,Cc1ccc(C(C)(C)C)cc1,"PubChem, eChemPortal"
0.078,CC1CCCCC1O (stereo not drawn),eChemPortal
-1,CCCCN(CCO)CCCC,"PubChem, eChemPortal"

Again, the 2 entries with the lowest log VP:

SMILES,log VP (log10 mmHg),via
Cn1cc(C(=O)Nc2ccccc2-c2cc(F)c(F)c(F)c2)c(C(F)F)n1,-10.69,OCHEM
CC(=O)OCCOc1ccc(C(C)(C)c2ccc(OCCOC(C)=O)cc2)cc1,-9.796,eChemPortal

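The numbers are reported measurements, compiled and curated for the OPERA QSAR suite. The files give a single number for a compound and property, which may rest on several reports. How each value was measured is not recorded, so precision varies. Where a salt, mixture or single isomer is drawn, the source does not say that exactly this form was tested. Unmarked limits or estimates from the upstream databases cannot be ruled out.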